In this assay the target is μ-opioid receptor (MOR) (Homo sapiens, UniProt P35372). As to the kind of experiment: [35S]GTPγS binding assay, MOR agonist activity. The note with it: mean ± sem. Format: biochemical. Here is the method: Protein concentration was detected using BCA protein concentration assay kit: 10 μl of protein standard was prepared into a final concentration of 0.5 mg/ml. 0, 1, 2, 4, 8, 12, 16, or 20 μl of BSA standard protein was taken and added together with the sample to be tested to a 96-well plate, and supplemented to 20 μl with the solution for diluting the standard. 200 μl of BCA working solution was added to each well and placed at 37° C. for 30 min. The absorbance at A562 wavelength was measured with a microplate reader. The protein concentration was calculated based on the standard curve.
The prepared membrane receptor was diluted to the required concentration with the reaction buffer (R.B), and the samples were added as shown in Table 2 (unit: μl).
The reaction tube was incubated in a 27° C. water bath for 1 hour, and the mixture was filtered through a glass fiber membrane under reduced pressure and liquid scintillation counting was performed. The following equation was used to perform calculation:
[^35S] GTPγS binding rate=100×(cpmsample−cpmnon-specific)/(cpmbasal−cpmnon-specific)
(In general: Binding of GTPγS marks nucleotide exchange on a G protein.)

Protein sequences, listed by entry. Tags and fused reporters are not part of them.
UniProt P35372, whole entry: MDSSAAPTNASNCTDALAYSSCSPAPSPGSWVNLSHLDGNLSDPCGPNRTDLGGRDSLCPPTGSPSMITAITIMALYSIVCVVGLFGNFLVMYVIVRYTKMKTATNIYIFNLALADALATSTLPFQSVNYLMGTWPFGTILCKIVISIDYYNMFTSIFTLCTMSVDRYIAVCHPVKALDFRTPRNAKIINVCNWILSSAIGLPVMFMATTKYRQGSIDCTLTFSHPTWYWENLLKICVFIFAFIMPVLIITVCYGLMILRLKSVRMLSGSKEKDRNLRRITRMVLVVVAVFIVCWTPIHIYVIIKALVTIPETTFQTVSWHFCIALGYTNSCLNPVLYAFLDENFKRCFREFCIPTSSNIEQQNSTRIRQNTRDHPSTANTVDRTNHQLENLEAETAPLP

As a reminder, the EC50 is the concentration at which the effect is half-maximal. Lower therefore signals higher potency in that assay.

Structures are written as SMILES.

Consider `C[C@@H](NC(=O)[C@@H](N)Cc1ccc(O)cc1)C(=O)N[C@@H](Cc1ccccc1)C(=O)NCC(=O)N[C@@H](Cc1ccc(O)cc1)C(=O)N1CCC[C@H]1C(=O)N[C@@H](CO)C(N)=O` [derorphin, reference compound], for which the EC50 is 0.0613 ± 0.0106 µM.

Source of the values: US20220177515A1, “METHOD FOR MODIFYING AMINO GROUP IN MOLECULE WITH THE ZOLINIUM AND USE THEREOF” (priority 2019, published 2022).
